In ChEMBL document CHEMBL1143376, “Synthesis and biological evaluation of extraordinarily potent C-10 carba artemisinin dimers against P. falciparum malaria parasites and HL-60 cancer cells” (Bioorg Med Chem, 2009):

tested on: HL-60; assay: Anticancer activity against human HL60 cells by MTT assay; format: functional, cell-based
Procedure, shortened: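 HL-60 cells grown in RPMI-1640 with 10% v/v FBS and 1% v/v L-glutamine, 37 °C, 5% CO2, kept below 1 × 10⁶ cells/mL, passages 5–15. Seeded at 2.5 × 10⁴/well in triplicate and exposed for 72 h to […]. DMSO final below 0.5% v/v. Read by MTT (4 h) then SDS/DMF lysis (4 h), A570/590, as % of vehicle. IC50 taken from inhibition curves; experiments repeated at least three times.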

First: C[C@H]1[C@@H](CCOP(C)(=O)OCC[C@H]2O[C@@H]3O[C@@]4(C)CC[C@H]5[C@H](C)CC[C@@H]([C@H]2C)[C@@]35OO4)O[C@@H]2O[C@@]3(C)CC[C@H]4[C@H](C)CC[C@@H]1[C@@]24OO3
Second: C[C@H]1[C@@H](CCCOP(C)(=O)OCCC[C@H]2O[C@@H]3O[C@@]4(C)CC[C@H]5[C@H](C)CC[C@@H]([C@H]2C)[C@@]35OO4)O[C@@H]2O[C@@]3(C)CC[C@H]4[C@H](C)CC[C@@H]1[C@@]24OO3
The IC50 of the first is 1.6-fold higher: 160 nM for the first, 100 nM for the second.

Compound `C[C@H]1[C@@H](CCOP(C)(=O)OCC[C@H]2O[C@@H]3O[C@@]4(C)CC[C@H]5[C@H](C)CC[C@@H]([C@H]2C)[C@@]35O4)O[C@@H]2O[C@@]3(C)CC[C@H]4[C@H](C)CC[C@@H]1[C@@]24O3` has an IC50 of 28100 nM.
